Results: US20100179118A1, “CYCLIC AMINOALKYLCARBOXAMIDE DERIVATIVE” (DAINIPPON SUMITOMO PHARMA CO., LTD., priority 2006, published 2010)

What follows are molecules tested on BN rat DNCB repetitive application dermatitis model (assay: Suppressive action on BN rat DNCB repetitive application dermatitis model). Conditions: dose 2 mg/kg, oral once a day; AUC of ear thickness increase vs solvent control; male BN rat.
Type: in vivo
Method: Suppressive Action on BN Rat DNCB Repetitive Application Dermatitis Model
A 8-week-old male rat was sensitized by applying 30 μL of 1.5 wt % solution of dinitrochlorobenzene (DNCB) dissolved in acetone:olive oil=4:1 solution to the right ear on day 1 and 3 days later. Starting from one week thereafter, the same solution was consecutively applied to the right ear every other day in total of 6 times, whereby chronic dermatitis was induced in which the skin thickness increases with time. As for the level of dermatitis, the thickness was measured with a dial gauge thickness before application of the solution, and expressed by the difference from the measured thickness of the right ear immediately before induction on day 1 of the induction. The drug was suspended in 0.5 wt % tragacanth, and orally administered once a day immediately before induction on day 1 of the induction and after 24 hr value measurement the next day. The changes in the ear tumentia with time were monitored, and the area under the curve in a graph showing the values up to 48 hr after the final induction was calculated, from which the percent suppression relative to the area of the solvent control group was determined. As a comparison control compound, prednisolone, which is a steroid, was used.

| Structure (SMILES) | suppression (%) at 48 hr after final induction [%] |
| --- | --- |
| O=C(c1ccc(C(F)(F)F)cc1)N1CCC(N(C(=O)CN2CCCC2)c2ccccc2)CC1 | 39.6 |
| O=C(c1ccc(C(F)(F)F)cc1)N1CCC(N(C(=O)CN2CCCCC2)c2ccccc2)CC1 | 38.5 |
| O=C(c1ccc(Cl)cc1)N1CCC(N(C(=O)CN2CCCCC2)c2ccccc2)CC1 | 38.4 |

The molecules below were run on TMA (trimellitic anhydride) repetitive application dermatitis model (assay: Suppressive action on TMA (trimellitic anhydride) repetitive application dermatitis model). Conditions: dose 20 mg/kg, oral twice (30 min before and 4 hr after induction); ear thickness vs solvent control; male BALB/c mice.
Type: in vivo

| Structure (SMILES) | right ear suppression (%) at 8 hr after final induction [%] |
| --- | --- |
| O=C(c1cc(F)c(Cl)cc1F)N1CCC(N(C(=O)CN2CCCCC2)c2ccccc2)CC1 | 55.7 |
| O=C(c1ccc(C(F)(F)F)cc1)N1CCC(N(C(=O)CN2CCCC2)c2ccccc2)CC1 | 52.1 |
| O=C(c1ccc(C(F)(F)F)cc1)N1CCC(N(C(=O)CN2CCCCC2)c2ccccc2)CC1 | 72.5 |
| O=C(c1ccc(Cl)cc1)N1CCC(N(C(=O)CCN2CCCC2)c2ccccc2)CC1 | 40.6 |
| O=C(c1ccc(C(F)(F)F)c(F)c1F)N1CCC(N(C(=O)CN2CCOCC2)c2ccccc2)CC1 | 60.6 |
| O=C(c1ccc(C(F)(F)F)cc1)N1CCC(N(C(=O)CN2CCOCC2)c2ccccc2)CC1 | 50.7 |
| O=C(c1ccc(C(F)(F)F)c(F)c1)N1CCC(N(C(=O)CN2CCCCC2)c2ccccc2)CC1 | 58.3 |
| O=C(CN1CCOCC1)N(c1ccccc1)C1CCN(C(=O)[C@H]2CC[C@H](C(F)(F)F)CC2)CC1 (relative stereo) | 63.9 |

Same assay, conditions: dose 80 mg/kg, oral twice (30 min before and 4 hr after induction); ear thickness vs solvent control; male BALB/c mice

| Structure (SMILES) | right ear suppression (%) at 8 hr after final induction [%] |
| --- | --- |
| O=C(c1ccc(C(F)(F)F)cc1)N1CCC(N(C(=O)CN2CCC(O)C2)c2ccccc2)CC1 (centres unmarked) | 56.0 |
| CN(C)C1CCN(CC(=O)N(c2ccccc2)C2CCN(C(=O)c3ccc(C(F)(F)F)cc3)CC2)C1 (centres unmarked) | 58.1 |
| CN1CCN(CCC(=O)N(c2ccccc2)C2CCN(C(=O)c3ccc(C(F)(F)F)cc3)CC2)CC1 | 62.0 |
